Literature values, collected in US20040029953A1, “Use of neuropeptide-y antagonists in treatment of alcoholism” (priority 2000, published 2004).

Chains of the proteins cited; added tags and fusions are not shown. Lines headed by an entry give the natural chain unless they say otherwise; changes in a name come on top.
UniProt P25929, whole entry: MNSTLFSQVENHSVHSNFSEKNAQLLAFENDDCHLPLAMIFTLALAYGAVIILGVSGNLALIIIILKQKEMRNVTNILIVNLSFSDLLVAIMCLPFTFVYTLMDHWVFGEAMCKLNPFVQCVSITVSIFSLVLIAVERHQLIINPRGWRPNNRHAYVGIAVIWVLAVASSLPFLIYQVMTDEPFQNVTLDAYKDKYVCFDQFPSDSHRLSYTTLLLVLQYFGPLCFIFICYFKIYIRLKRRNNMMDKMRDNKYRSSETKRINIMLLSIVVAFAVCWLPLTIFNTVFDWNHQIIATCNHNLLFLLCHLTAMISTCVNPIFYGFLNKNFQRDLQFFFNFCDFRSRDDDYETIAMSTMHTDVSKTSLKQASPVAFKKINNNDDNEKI
UniProt P50391: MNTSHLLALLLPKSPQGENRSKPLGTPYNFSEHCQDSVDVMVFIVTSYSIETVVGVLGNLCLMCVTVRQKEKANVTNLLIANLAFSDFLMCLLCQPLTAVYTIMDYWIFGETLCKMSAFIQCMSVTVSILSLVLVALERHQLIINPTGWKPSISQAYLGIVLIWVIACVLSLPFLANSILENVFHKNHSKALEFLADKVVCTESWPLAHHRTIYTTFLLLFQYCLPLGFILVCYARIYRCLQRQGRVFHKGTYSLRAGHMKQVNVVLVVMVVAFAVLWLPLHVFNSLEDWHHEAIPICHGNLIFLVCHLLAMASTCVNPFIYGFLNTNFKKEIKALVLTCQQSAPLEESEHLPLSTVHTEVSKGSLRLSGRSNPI
UniProt P49146, whole entry: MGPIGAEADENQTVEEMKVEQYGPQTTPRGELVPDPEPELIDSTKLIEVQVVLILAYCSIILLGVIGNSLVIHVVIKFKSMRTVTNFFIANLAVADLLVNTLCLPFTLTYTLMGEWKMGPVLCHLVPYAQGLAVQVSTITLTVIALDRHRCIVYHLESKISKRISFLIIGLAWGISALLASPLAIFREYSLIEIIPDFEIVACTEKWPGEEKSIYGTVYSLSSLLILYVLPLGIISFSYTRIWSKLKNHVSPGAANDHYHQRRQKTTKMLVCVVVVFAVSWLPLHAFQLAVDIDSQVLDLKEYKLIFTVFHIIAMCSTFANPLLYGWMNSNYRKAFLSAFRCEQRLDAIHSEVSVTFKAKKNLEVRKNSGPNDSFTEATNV

Experiments:
Conditions in all cases: cited from earlier work
Y1 receptor = Y1 receptor (Homo sapiens, UniProt P25929)
Y5 receptors = target: T1, Y5 receptors (Homo sapiens, UniProt Q15761)
T1 sequence (Q15761 1-445): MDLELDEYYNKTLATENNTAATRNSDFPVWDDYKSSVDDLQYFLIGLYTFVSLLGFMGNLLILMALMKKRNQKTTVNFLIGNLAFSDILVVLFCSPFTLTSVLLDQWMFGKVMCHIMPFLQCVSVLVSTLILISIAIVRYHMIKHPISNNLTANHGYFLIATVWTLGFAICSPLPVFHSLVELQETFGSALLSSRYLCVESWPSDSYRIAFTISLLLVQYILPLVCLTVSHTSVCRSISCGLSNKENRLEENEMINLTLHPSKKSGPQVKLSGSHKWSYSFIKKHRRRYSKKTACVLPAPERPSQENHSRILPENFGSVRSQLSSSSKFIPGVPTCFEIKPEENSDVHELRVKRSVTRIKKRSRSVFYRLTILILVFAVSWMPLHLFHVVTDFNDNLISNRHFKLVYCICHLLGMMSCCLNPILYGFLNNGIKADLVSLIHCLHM

Y4 receptors = Y4 receptors (Homo sapiens, UniProt P50391)
Y2 receptors = Y2 receptors (Homo sapiens, UniProt P49146)

[D-Tyr^27,36,D-Thr^32] Neuropeptide Y (27-36) [D-NPY]
binds with antagonistic properties: affinity for the Y1 receptor subtype (Y1 receptor) | affinity for Y5 receptors (Y5 receptors) | affinity for Y4 receptors (Y4 receptors) | affinity for Y2 receptors (Y2 receptors)
